Screening data from PubChem.
HCMV UL50-53 inh: cytomegalovirus nuclear egress complex inhibition; HTRF UL50-UL53 interaction, normalized percent inhibition; inhibition, % (test concentration not listed); hit rate 0.15% among 190,000; AID 1918969; in the data active means inhibition above about 27%, passing the limit was not always enough
GIV-Gai inh: inhibitors of GIV GBA-motif binding to rat Galpha-i3; P08753; Galpha-i3/FITC-GIV peptide fluorescence polarization, 90 min; hits give low values; scaled: aluminum fluoride 0%, vehicle 100%; percent of control (FP), % (no concentration beside the values); hit rate 0.42% among 210,000; AID 1224905;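 active = replicate mean at 85% of control or lower, very high polarization wells dropped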;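 note: wells of about 15 µL received 100 nL stock; the first replicate is given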
GIV-Gai FP conf: confirmation of inhibitors of GIV binding to rat Galpha-i3; shares compounds with GIV-Gai inh; FITC-GIV peptide binding to Galphai3, fluorescence polarization; hits give low values; fluorescence polarization, mP at 100 µM; hit rate 38% among 580;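 active means inhibition score of 15 or more, meaning 100 minus mean polarization as percent of control over three replicates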;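 further: lower mP means peptide displaced from Galphai3 so more inhibition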
GIV Gai AS conf: confirmation of inhibitors of GIV binding to human Galpha-i3; shares compounds with GIV-Gai inh; AlphaScreen Galphai3-GIV binding, purified proteins, 90 min; hits give low values; AlphaScreen counts at 100 µM; hit rate 39% among 580; AID 1259351;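 active means inhibition score at or above a set limit, where the score is 100 minus the three-replicate mean percent of control signal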
An asterisk follows results filed as active; nt = no result. The list is not random: actives were taken first. Their share in the collection is about 0.46%.

1	CCOc1cc(C(c2c(C)[nH]n(-c3ccccc3)c2=O)c2c(C)[nH]n(-c3ccccc3)c2=O)ccc1OCc1ccc(Cl)cc1
2	COc1ccc2nc(C)c(C(=O)O)cc2c1
3	CNC(=O)c1csc2c1CCCCC2
4	COc1ccc(NC(=O)C(CSCc2ccccc2)N2Cc3ccccc3C2=O)cc1OC (centres undefined)
5	COc1ccc(-c2c3c(nc4sc(C(=O)Nc5cccc(OC)c5)c(N)c24)CC(C)(C)CC3=O)cc1
6	COc1cccc(NC(=O)c2sc3nc4c(c(-c5ccco5)c3c2N)CCC4)c1
Compound | 1 | 2 | 3 | 4 | 5 | 6
HCMV UL50-53 inh | nt | -19 | nt | -7 | -26 | nt
GIV-Gai inh | 81* | 98 | 99 | 100 | 104 | 85*
GIV-Gai FP conf | 52* | nt | nt | nt | nt | 65
GIV Gai AS conf | 31576 | nt | nt | nt | nt | 51091

7	COc1ccc(NC(=O)c2sc3nc(C)cc(C(F)(F)F)c3c2N)cc1
8	COc1ccc(NC(=O)c2sc3nc4c(c(-c5ccc(OC)cc5)c3c2N)C(=O)CC(C)(C)C4)cc1
9	Cc1cc(C(F)(F)F)c2c(N)c(C(=O)Nc3ccc(F)cc3)sc2n1
10	CCc1c(C#N)c(N)nc2sc(C(=O)Nc3ccc(Br)cc3)c(N)c12
11	COc1cccc(NC(=O)c2sc3nc4c(c(-c5ccc(C)o5)c3c2N)CCCC4)c1
12	CCOc1ccc(-c2c(C#N)c(N)nc3sc(C(=O)Nc4ccc(Br)cc4)c(N)c23)cc1
Compound | 7 | 8 | 9 | 10 | 11 | 12
HCMV UL50-53 inh | nt | -40 | -18 | -19 | nt | -16
GIV-Gai inh | 125 | 70* | 61* | nt | 115 | 86
GIV-Gai FP conf | nt | 81 | 64 | nt | nt | 64
GIV Gai AS conf | nt | 32279 | 59274 | nt | nt | 51717

13	CCOC(=O)C1=C(CSc2nc(CC)c(C)cc2C#N)OC(N)=C(C#N)C1c1ccccc1I (centres undefined)
14	Cc1nn(-c2ccc(F)cc2)c(-n2cccc2)c1C(=O)NCC(C)c1ccccc1 (centres undefined)
15	Cc1ccc(F)cc1S(=O)(=O)NCCc1n[nH]c(Cc2ccc(F)cc2)n1
16	O=C(NCc1ccccn1)c1snc2c(=O)n(Cc3ccccc3)cnc12
17	COC(OC)C12c3ccccc3C(c3ccccc31)C1C(=O)N(CCO)C(=O)C12 (centres undefined)
18	CSc1ncc(C(=O)Nc2nc3ccccc3s2)cn1
Compound | 13 | 14 | 15 | 16 | 17 | 18
HCMV UL50-53 inh | nt | -7 | nt | nt | nt | -14
GIV-Gai inh | 110 | 105 | 101 | 106 | 107 | 102
GIV-Gai FP conf | nt | nt | nt | nt | nt | nt
GIV Gai AS conf | nt | nt | nt | nt | nt | nt

19	Nc1c(C(=O)N2CCCCC2)sc2nc(-c3cccs3)cc(C(F)(F)F)c12
20	Nc1c(C(=O)N2CCOCC2)sc2nc(-c3cccs3)cc(C(F)(F)F)c12
21	Nc1c(C(=O)NC2CC2)sc2nc(-c3cccs3)cc(C(F)(F)F)c12
22	COc1ccc(NC(=O)c2sc3nc(-c4cccs4)cc(C(F)(F)F)c3c2N)cc1
23	N#Cc1ccc(/C=N/NC(=O)Cc2cn3ccsc3n2)cc1
24	CCN(c1ccccc1)c1ncnc(N)n1
Compound | 19 | 20 | 21 | 22 | 23 | 24
HCMV UL50-53 inh | -1 | nt | nt | nt | -46 | -40
GIV-Gai inh | nt | 108 | 45* | 75* | nt | 102
GIV-Gai FP conf | nt | nt | 64 | 68 | nt | nt
GIV Gai AS conf | nt | nt | 53248 | 53981 | nt | nt

25	Cc1cc(N2CCOCC2)n2nc(C(F)(F)F)c(-c3ccc(Cl)cc3)c2n1
26	Cc1ccc(-c2c(C(F)(F)F)nn3c(-n4nc(C)cc4C)cc(C)nc23)cc1
27	Cc1cc(N2CCOCC2)n2nc(C)c(-c3ccc(F)cc3)c2n1
28	Cc1ccc(-c2c(C(F)(F)F)nn3c(N4CCN(C)CC4)cc(C)nc23)cc1
29	CCOC(=O)c1[nH]c(C)c(CN(C(=O)Nc2cc(Cl)ccc2OC)C2CCCCC2)c1C
30	O=C(NCCc1ccccc1)c1sc(=S)n2c1[nH]c(=O)c1ccccc12
Compound | 25 | 26 | 27 | 28 | 29 | 30
HCMV UL50-53 inh | 2 | 0 | -24 | -17 | nt | nt
GIV-Gai inh | 88 | 93 | 110 | 97 | 108 | 86
GIV-Gai FP conf | 66 | 65 | nt | nt | nt | 65
GIV Gai AS conf | 42837 | 45290 | nt | nt | nt | 13551*

31	O=C(NC1CCCCC1)c1sc(=S)n2c1[nH]c(=O)c1ccccc12
32	O=C(CN1CCOCC1)Nc1ncc(Cc2ccc(Cl)cc2)s1
33	NC(=O)C[n+]1cccc2ccccc21
34	NC(=O)C[n+]1ccc(/C=N/O)cc1
35	COc1ccc(N2C(=O)c3c(C)nc4ccccc4c3C2=O)cc1OC
36	COc1ccc(N2C(=O)c3c(C)nc4ccccc4c3C2=O)cn1
Compound | 31 | 32 | 33 | 34 | 35 | 36
HCMV UL50-53 inh | -43 | -12 | nt | -80 | -29 | -38
GIV-Gai inh | 101 | 109 | 80* | 108 | 103 | 84*
GIV-Gai FP conf | nt | nt | 48* | nt | nt | 55
GIV Gai AS conf | nt | nt | 5016* | nt | nt | 42415

37	COCCNC(=O)C1CCN(c2nnc(-n3cccc3)s2)CC1
38	CCOc1ccc(-c2cc(C(=O)N3CCCCC3C)[nH]n2)cc1 (centres undefined)
39	Cc1ccc(C(=O)Nc2c(N)nc(SCC(=O)N3CCCc4ccccc43)[nH]c2=O)cc1
40	CC(=O)N1CC(C)=C(C#N)C1O (centres undefined)
41	CC(=O)N1CN(C(C)=O)C(O)C1O (centres undefined)
Compound | 37 | 38 | 39 | 40 | 41
HCMV UL50-53 inh | -7 | -22 | -20 | 2 | 4
GIV-Gai inh | 103 | 101 | 101 | 73* | 103
GIV-Gai FP conf | nt | nt | nt | 48* | nt
GIV Gai AS conf | nt | nt | nt | 19185* | nt
